The results in this text go back to US20240408072A1, “COMPOSITION FOR PREVENTING OR TREATING GRAVES' DISEASE COMPRISING COMPOUND CONTAINING AN IMIDAZOPYRIDINE STRUCTURE AS ACTIVE INGREDIENT” (ESGELBIO INC., priority 2021, published 2024).

Amino acid sequences for entries named in this document (tags omitted). Residues count along the entry.
UniProt P07202, 19-933 limits assumed: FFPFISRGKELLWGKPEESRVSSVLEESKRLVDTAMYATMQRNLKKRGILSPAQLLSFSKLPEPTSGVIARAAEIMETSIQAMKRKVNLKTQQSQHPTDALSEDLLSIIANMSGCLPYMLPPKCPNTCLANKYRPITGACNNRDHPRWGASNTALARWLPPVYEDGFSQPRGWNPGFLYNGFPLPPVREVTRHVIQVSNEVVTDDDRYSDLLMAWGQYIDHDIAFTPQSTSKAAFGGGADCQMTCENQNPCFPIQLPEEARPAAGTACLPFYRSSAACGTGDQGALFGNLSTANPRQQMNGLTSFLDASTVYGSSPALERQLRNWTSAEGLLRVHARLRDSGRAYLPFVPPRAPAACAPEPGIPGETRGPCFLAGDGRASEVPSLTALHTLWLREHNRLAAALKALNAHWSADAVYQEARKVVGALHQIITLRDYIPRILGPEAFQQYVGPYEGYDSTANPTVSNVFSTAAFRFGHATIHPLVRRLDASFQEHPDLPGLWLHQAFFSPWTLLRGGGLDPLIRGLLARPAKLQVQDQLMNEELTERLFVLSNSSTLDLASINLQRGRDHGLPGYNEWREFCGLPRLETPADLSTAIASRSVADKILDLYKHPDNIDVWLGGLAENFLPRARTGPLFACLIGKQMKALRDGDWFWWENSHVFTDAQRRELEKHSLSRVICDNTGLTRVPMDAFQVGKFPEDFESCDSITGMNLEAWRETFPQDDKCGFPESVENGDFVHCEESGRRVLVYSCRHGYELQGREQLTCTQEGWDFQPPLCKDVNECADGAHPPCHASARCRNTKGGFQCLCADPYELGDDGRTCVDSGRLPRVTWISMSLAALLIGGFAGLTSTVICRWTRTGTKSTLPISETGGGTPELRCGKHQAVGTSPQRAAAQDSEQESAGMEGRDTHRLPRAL
UniProt P05164, 49-745 limits assumed: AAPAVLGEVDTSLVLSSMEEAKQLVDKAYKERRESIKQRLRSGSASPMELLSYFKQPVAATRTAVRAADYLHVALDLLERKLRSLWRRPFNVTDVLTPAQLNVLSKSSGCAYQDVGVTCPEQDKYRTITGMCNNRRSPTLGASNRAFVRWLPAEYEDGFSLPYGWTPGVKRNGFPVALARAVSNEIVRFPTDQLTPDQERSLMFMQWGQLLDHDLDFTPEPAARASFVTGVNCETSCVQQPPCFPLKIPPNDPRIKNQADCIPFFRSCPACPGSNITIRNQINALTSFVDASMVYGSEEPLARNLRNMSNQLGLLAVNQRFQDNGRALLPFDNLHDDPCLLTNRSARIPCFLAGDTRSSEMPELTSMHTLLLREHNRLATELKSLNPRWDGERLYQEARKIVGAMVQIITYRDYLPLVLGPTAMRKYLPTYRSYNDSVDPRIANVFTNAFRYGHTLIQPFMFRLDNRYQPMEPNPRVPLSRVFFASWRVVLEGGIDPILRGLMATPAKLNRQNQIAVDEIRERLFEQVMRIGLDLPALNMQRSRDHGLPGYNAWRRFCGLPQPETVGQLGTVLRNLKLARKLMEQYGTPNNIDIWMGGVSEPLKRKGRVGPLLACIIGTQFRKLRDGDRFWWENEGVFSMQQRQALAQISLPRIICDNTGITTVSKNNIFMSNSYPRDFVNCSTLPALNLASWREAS

The structures appear in SMILES notation.

Holding throughout (assay type): biochemical
One assay deals with thyroid peroxidase (TPO) (Homo sapiens (Human), UniProt P07202). Briefly: Thyroid peroxidase (TPO) inhibition IC50. To be noted: read-out: IC50 (uM) TPO; Table 3.
The next assay concerns the target LPO (Bos taurus, UniProt P80025). Kind of assay: LPO inhibition IC50. Conditions: Table 3.
Another assay has as its target Human MPO (Homo sapiens (Human), UniProt P05164). Briefly: Myeloperoxidase (MPO) inhibition IC50 screening. Conditions: read-out: IC50 (uM) MPO; Table 3.

For `COc1ccc2c(c1)c(-c1csc(NC(=O)C3CC(=O)OC3(C)C)n1)c(C)n2C` (stereo not drawn), the IC50 (in general, the concentration that inhibits the measured activity by half) came out at 0.13 µM on thyroid peroxidase (TPO) and 1.83 µM at Human MPO. For the same compound, the “IC50 (uM) LPO” value on LPO was “n.s”.
